Data from ChEMBL document CHEMBL4007505 (J Med Chem, 2017).

The chains behind the UniProt entries cited, without tags or fusion partners.
UniProt P23975, whole entry: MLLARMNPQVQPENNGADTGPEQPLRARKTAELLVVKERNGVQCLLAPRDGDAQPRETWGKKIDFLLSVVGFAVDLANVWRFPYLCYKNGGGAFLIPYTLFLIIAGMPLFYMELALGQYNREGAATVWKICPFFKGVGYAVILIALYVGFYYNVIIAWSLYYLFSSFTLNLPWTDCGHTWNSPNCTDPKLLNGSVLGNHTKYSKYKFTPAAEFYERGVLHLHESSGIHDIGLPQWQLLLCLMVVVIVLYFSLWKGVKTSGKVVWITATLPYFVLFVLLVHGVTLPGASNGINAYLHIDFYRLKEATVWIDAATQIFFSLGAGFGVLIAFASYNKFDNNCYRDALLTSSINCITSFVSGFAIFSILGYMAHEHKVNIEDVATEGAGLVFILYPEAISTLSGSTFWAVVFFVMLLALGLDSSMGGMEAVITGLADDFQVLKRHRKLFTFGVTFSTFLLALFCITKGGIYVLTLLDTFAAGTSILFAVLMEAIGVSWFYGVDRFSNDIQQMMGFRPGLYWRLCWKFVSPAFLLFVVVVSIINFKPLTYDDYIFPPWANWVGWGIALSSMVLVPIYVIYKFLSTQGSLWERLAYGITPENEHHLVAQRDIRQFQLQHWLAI
UniProt Q61327, whole entry: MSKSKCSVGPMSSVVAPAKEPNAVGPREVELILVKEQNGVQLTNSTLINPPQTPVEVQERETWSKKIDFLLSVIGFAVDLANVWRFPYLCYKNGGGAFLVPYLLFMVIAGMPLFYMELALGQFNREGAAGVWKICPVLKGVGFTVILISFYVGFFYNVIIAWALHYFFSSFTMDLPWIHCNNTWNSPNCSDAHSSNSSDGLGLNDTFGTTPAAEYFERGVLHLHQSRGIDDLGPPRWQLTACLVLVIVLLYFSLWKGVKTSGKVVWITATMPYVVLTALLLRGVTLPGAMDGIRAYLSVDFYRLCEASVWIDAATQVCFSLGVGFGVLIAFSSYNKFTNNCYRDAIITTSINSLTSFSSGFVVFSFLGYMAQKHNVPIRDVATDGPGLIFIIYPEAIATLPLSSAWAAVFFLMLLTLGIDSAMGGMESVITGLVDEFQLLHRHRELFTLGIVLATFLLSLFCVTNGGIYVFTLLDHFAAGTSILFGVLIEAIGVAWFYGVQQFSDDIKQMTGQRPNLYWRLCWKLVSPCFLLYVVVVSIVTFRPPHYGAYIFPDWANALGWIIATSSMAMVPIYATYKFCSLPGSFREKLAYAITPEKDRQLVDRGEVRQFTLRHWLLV

Assays:
[1] = biological target: T1, Sodium-dependent noradrenaline transporter (Homo sapiens, UniProt P23975); assay: Inhibition of recombinant human NET expressed in HEK293 […] assessed as reduction in [3H]-norepinephrine uptake incubated for 22 mins by micro beta scintillation counting analysis
[2] = biological target: T1, Sodium-dependent noradrenaline transporter; assay: Enhancing of [125I]RTI-55 binding to recombinant human NET expressed in HEK293 cell membranes preincubated for 10 mins followed by radioligand addition measured after 90 mins by micro beta scintillation counting analysis
[3] = biological target: Sodium-dependent dopamine transporter (Mus musculus, UniProt Q61327); assay: Inhibition of [125I]RTI-55 binding to mouse DAT expressed in HEK293 cells preincubated for 10 mins followed by radioligand addition measured after 90 mins by micro beta scintillation counting analysis; assay type: cell-based

Structure (SMILES)	IC50 [1] [nM]	EC50 [2] [nM]	Ki [3] [nM]
CNC(=O)[C@@]12C[C@@H]1[C@@H](n1cnc3c(NC)nc(C#Cc4ccc(F)c(F)c4)nc31)[C@H](O)[C@@H]2O	> 10000	1760	
OC1(c2ccc(Cl)cc2)c2ccccc2C2=NCCN21 (racemic) [MAZINDOL]			404
